Results from US11542293B2, “Sting modulator compounds, and methods of making and using” (Takeda Pharmaceutical Company Limited, priority 2017, dated 2023).

What follows are compounds tested on THP1-Dual cells (ISG54 promoter Lucia luciferase reporter) (assay: THP-1 Dual Lucia Reporter Gene Assay). Details: Homo sapiens, THP1-Dual, 20 h, Lucia luciferase signal induction, 20 hours at 37° C., read-out: Cellular THP 1 EC50.
Type: cell-based, human
Method: THP1-Dual™ cells (InvivoGen #thpd-nfis) were derived from the human THP-1 monocyte cell line by stable integration of the Lucia luciferase gene, a secreted luciferase reporter gene, under the control of an ISG54 (interferon-stimulated gene) minimal promoter in conjunction with five interferon (IFN)-stimulated response elements. […] The cell plates were dosed with 62.5 nL of the testing compounds, and then incubated at 37° C. for 20 hours. At the end of the incubation, 15 μL/well of the QUANTI-Luc™ (InvivoGen #rep-q1c1) were added, and luminescence was measured immediately using the LeadSeeker.
Compound concentration versus percent signal induction curves were fitted to generate EC50 values.
In the case of `N#Cc1cncnc1N[C@@H]1C[C@@H]2COP(=O)(S)O[C@@H]3[C@H](O)[C@@H](COP(=O)(S)O[C@H]2C1)O[C@H]3n1cnc2c(=O)[nH]c(N)nc21` (single isomer, unassigned) [Compound I-4a], the EC50 is reported as > 25 µM. `Nc1nc2c(ncn2[C@@H]2O[C@@H]3COP(=O)(S)O[C@H]4C[C@H](Oc5ccncn5)C[C@@H]4COP(=O)(S)O[C@@H]2[C@@H]3F)c(=O)[nH]1` (single isomer, unassigned) [Compound I-22a] showed an EC50 of 1 to 10 µM. `Nc1nc2c(ncn2[C@@H]2O[C@@H]3COP(=O)(S)O[C@H]4C[C@H](Oc5ccncn5)C[C@@H]4COP(=O)(S)O[C@@H]2[C@@H]3OCC(F)(F)F)c(=O)[nH]1` (single isomer, unassigned) [Compound I-32a] gave an EC50 of 1 to 10 µM.

Same assay, conditions: Lucia luciferase signal induction, 20 hours at 37° C., read-out: Cellular THP 1 EC50
`Nc1nc2c(ncn2[C@@H]2O[C@@H]3COP(=O)(S)O[C@H]4C[C@H](Oc5ccncn5)C[C@@H]4COP(=O)(S)O[C@@H]2C3)c(=O)[nH]1` (single isomer, unassigned) [Compound I-1a] was tested, and the EC50 was 10 to 25 µM. `Nc1nc2c(ncn2[C@@H]2O[C@@H]3COP(=O)(S)O[C@H]4C[C@H](Nc5ccncn5)C[C@@H]4COP(=O)(S)O[C@@H]2[C@@H]3O)c(=O)[nH]1` (single isomer, unassigned) [Compound I-2a] gave an EC50 of 1 to 10 µM. Work on `Nc1nc2c(ncn2[C@@H]2O[C@@H]3COP(=O)(S)O[C@H]4C[C@H](Nc5ccncn5)C[C@@H]4COP(=O)(S)O[C@@H]2[C@@H]3O)c(=O)[nH]1` (single isomer, unassigned) [Compound I-2b] yielded an EC50 of 10 to 25 µM. With `O=c1[nH]cnc2c1c(F)cn2[C@@H]1O[C@@H]2COP(=O)(S)O[C@H]3C[C@H](Oc4ccncn4)C[C@@H]3COP(=O)(S)O[C@@H]1[C@@H]2O` (single isomer, unassigned) [Compound I-3a] the EC50 was > 25 µM. `O=c1[nH]cnc2c1c(F)cn2[C@@H]1O[C@@H]2COP(=O)(S)O[C@H]3C[C@H](Oc4ccncn4)C[C@@H]3COP(=O)(S)O[C@@H]1[C@@H]2O` (single isomer, unassigned) [Compound I-3b] was tested, and the EC50 was 10 to 25 µM. `Nc1nc2c(ncn2[C@@H]2O[C@@H]3COP(=O)(S)O[C@H]4C[C@H](Oc5ccncn5)C[C@@H]4COP(=O)(S)O[C@@H]2[C@@H]3O)c(=O)[nH]1` (single isomer, unassigned) [Compound I-5a] was tested, and the EC50 was > 25 µM. `Nc1nc2c(ncn2[C@@H]2O[C@@H]3COP(=O)(S)O[C@H]4C[C@H](Oc5ccncn5)C[C@@H]4COP(=O)(S)O[C@@H]2[C@@H]3O)c(=O)[nH]1` (single isomer, unassigned) [Compound I-5b] was tested, and the EC50 was 1 to 10 µM. In the case of `Nc1nc2c(ncn2[C@@H]2O[C@@H]3COP(=O)(S)O[C@H]4C[C@H](Oc5ccncn5)C[C@@H]4COP(=O)(S)O[C@@H]2[C@@H]3O)c(=O)[nH]1` (single isomer, unassigned) [Compound I-5c], the EC50 is reported as 1 to 10 µM. With `Nc1nc2c(ncn2[C@@H]2O[C@@H]3COP(=O)(S)O[C@H]4C[C@H](Oc5ccncn5)C[C@@H]4COP(=O)(S)O[C@@H]2[C@@H]3O)c(=O)[nH]1` (single isomer, unassigned) [Compound I-5d] the EC50 was 10 to 25 µM. `O=c1[nH]cnc2c1ncn2[C@@H]1O[C@@H]2COP(=O)(S)O[C@H]3C[C@H](Oc4ccncn4)C[C@@H]3COP(=O)(S)O[C@@H]1[C@@H]2O` (single isomer, unassigned) [Compound I-9a] gave an EC50 of 10 to 25 µM. Work on `O=c1[nH]cnc2c1ncn2[C@@H]1O[C@@H]2COP(=O)(S)O[C@H]3C[C@H](Oc4ccncn4)C[C@@H]3COP(=O)(S)O[C@@H]1[C@@H]2O` (single isomer, unassigned) [Compound I-9b] yielded an EC50 of 1 to 10 µM. `O=c1[nH]cnc2c1ncn2[C@@H]1O[C@@H]2COP(=O)(S)O[C@H]3C[C@H](Oc4ccncn4)C[C@@H]3COP(=O)(S)O[C@@H]1[C@@H]2O` (single isomer, unassigned) [Compound I-9c] was tested, and the EC50 was > 25 µM. Compound `O=c1[nH]cnc2c1ncn2[C@@H]1O[C@@H]2COP(=O)(S)O[C@H]3C[C@H](Oc4ccncn4)C[C@@H]3COP(=O)(S)O[C@@H]1[C@@H]2O` (single isomer, unassigned) [Compound I-9d] has an EC50 of 10 to 25 µM. `Cn1cnc2c(c(F)cn2[C@@H]2O[C@@H]3COP(=O)(S)O[C@H]4C[C@H](Oc5ccncn5)C[C@@H]4COP(=O)(S)O[C@@H]2[C@@H]3O)c1=O` (single isomer, unassigned) [Compound I-12a] was tested, and the EC50 was > 25 µM. `Cn1cnc2c(c(F)cn2[C@@H]2O[C@@H]3COP(=O)(S)O[C@H]4C[C@H](Oc5ccncn5)C[C@@H]4COP(=O)(S)O[C@@H]2[C@@H]3O)c1=O` (single isomer, unassigned) [Compound I-12b] was tested, and the EC50 was < 1 µM. `Nc1nc2c(ncn2[C@@H]2O[C@@H]3COP(=O)(O)O[C@H]4C[C@H](Nc5ccncn5)C[C@@H]4COP(=O)(S)O[C@@H]2[C@@H]3O)c(=O)[nH]1` (single isomer, unassigned) [Compound I-19a] was tested, and the EC50 was 1 to 10 µM. In the case of `Nc1nc2c(ncn2[C@@H]2O[C@@H]3COP(=O)(O)O[C@H]4C[C@H](Nc5ccncn5)C[C@@H]4COP(=O)(S)O[C@@H]2[C@@H]3O)c(=O)[nH]1` (single isomer, unassigned) [Compound I-19b], the EC50 is reported as > 25 µM. For `Nc1nc2c(ncn2[C@@H]2O[C@@H]3COP(=O)(S)O[C@H]4C[C@H](Oc5ccncn5)C[C@@H]4COP(=O)(S)O[C@@H]2[C@@H]3F)c(=O)[nH]1` (single isomer, unassigned) [Compound I-22b], the EC50 was < 1 µM. For `Nc1nc2c(ncn2[C@@H]2O[C@@H]3COP(=O)(O)O[C@H]4C[C@H](Oc5ccncn5)C[C@@H]4COP(=O)(S)O[C@@H]2[C@@H]3O)c(=O)[nH]1` (single isomer, unassigned) [Compound I-23a], the EC50 was > 25 µM. Compound `Nc1nc2c(ncn2[C@@H]2O[C@@H]3COP(=O)(O)O[C@H]4C[C@H](Oc5ccncn5)C[C@@H]4COP(=O)(S)O[C@@H]2[C@@H]3O)c(=O)[nH]1` (single isomer, unassigned) [Compound I-23b] has an EC50 of 1 to 10 µM. For `Nc1nc2c(nnn2[C@@H]2C[C@@H]3COP(=O)(S)O[C@@H]4[C@@H](COP(=O)(S)O[C@@H]2C3)C[C@@H](Nc2ccncn2)[C@@H]4F)c(=O)[nH]1` (single isomer, unassigned) [Compound I-25a], the EC50 was 1 to 10 µM. `Nc1nc2c(nnn2[C@@H]2C[C@@H]3COP(=O)(S)O[C@@H]4[C@@H](COP(=O)(S)O[C@@H]2C3)C[C@@H](Nc2ccncn2)[C@@H]4F)c(=O)[nH]1` (single isomer, unassigned) [Compound I-25b] was tested, and the EC50 was > 25 µM. `Nc1nc2c(nnn2[C@@H]2O[C@@H]3COP(=O)(S)O[C@H]4C[C@H](Oc5ccncn5)C[C@@H]4COP(=O)(S)O[C@@H]2[C@@H]3O)c(=O)[nH]1` (single isomer, unassigned) [Compound I-30c] showed an EC50 of 1 to 10 µM. `Nc1nc2c(nnn2[C@@H]2O[C@@H]3COP(=O)(S)O[C@H]4C[C@H](Oc5ccncn5)C[C@@H]4COP(=O)(S)O[C@@H]2[C@@H]3O)c(=O)[nH]1` (single isomer, unassigned) [Compound I-30d] was tested, and the EC50 was > 25 µM. With `Nc1nc2c(ccn2[C@@H]2O[C@@H]3COP(=O)(S)O[C@H]4C[C@H](Oc5ccncn5)C[C@@H]4COP(=O)(S)O[C@@H]2[C@@H]3O)c(=O)[nH]1` (single isomer, unassigned) [Compound I-31a] the EC50 was > 25 µM. Work on `Nc1nc2c(ccn2[C@@H]2O[C@@H]3COP(=O)(S)O[C@H]4C[C@H](Oc5ccncn5)C[C@@H]4COP(=O)(S)O[C@@H]2[C@@H]3O)c(=O)[nH]1` (single isomer, unassigned) [Compound I-31b] yielded an EC50 of 1 to 10 µM. In the case of `Nc1nc2c(ncn2[C@@H]2O[C@@H]3COP(=O)(S)O[C@H]4C[C@H](Oc5ccncn5)C[C@@H]4COP(=O)(S)O[C@@H]2[C@@H]3OCC(F)(F)F)c(=O)[nH]1` (single isomer, unassigned) [Compound I-32b], the EC50 is reported as < 1 µM. `Nc1nc2c(ncn2[C@@H]2O[C@@H]3COP(=O)(S)O[C@@H]4[C@@H](COP(=O)(S)O[C@@H]2[C@@H]3O)C[C@@H](Nc2ccncn2)[C@H]4F)c(=O)[nH]1` (single isomer, unassigned) [Compound I-35c] was tested, and the EC50 was > 25 µM. Work on `Nc1nc2c(ncn2[C@@H]2O[C@@H]3COP(=O)(S)O[C@@H]4[C@@H](COP(=O)(S)O[C@@H]2[C@@H]3O)C[C@@H](Nc2ccncn2)[C@H]4F)c(=O)[nH]1` (single isomer, unassigned) [Compound I-35d] yielded an EC50 of 10 to 25 µM. `Nc1nc2c(ncn2[C@@H]2O[C@@H]3COP(=O)(S)O[C@H]4C[C@H](Nc5cc(=O)[nH]cn5)C[C@@H]4COP(=O)(S)O[C@@H]2[C@@H]3O)c(=O)[nH]1` (single isomer, unassigned) [Compound I-41a] was tested, and the EC50 was > 25 µM. `Nc1nc2c(ncn2[C@@H]2O[C@@H]3COP(=O)(S)O[C@H]4C[C@H](Nc5cc(=O)[nH]cn5)C[C@@H]4COP(=O)(S)O[C@@H]2[C@@H]3O)c(=O)[nH]1` (single isomer, unassigned) [Compound I-41b] was tested, and the EC50 was 10 to 25 µM. Work on `Nc1nc2c(ncn2[C@@H]2O[C@@H]3COP(=O)(S)O[C@H]4C[C@H](Nc5ncncn5)C[C@@H]4COP(=O)(S)O[C@@H]2[C@@H]3O)c(=O)[nH]1` (single isomer, unassigned) [Compound I-44a] yielded an EC50 of 10 to 25 µM. `Nc1nc2c(ncn2[C@@H]2O[C@@H]3COP(=O)(S)O[C@H]4C[C@H](Nc5ncncn5)C[C@@H]4COP(=O)(S)O[C@@H]2[C@@H]3O)c(=O)[nH]1` (single isomer, unassigned) [Compound I-44b] gave an EC50 of 1 to 10 µM. With `Nc1nc2c(ncn2[C@@H]2O[C@@H]3COP(=O)(S)O[C@H]4C[C@H](Oc5ccncn5)C[C@@H]4COP(=O)(S)O[C@@H]2C3)c(=O)[nH]1` (single isomer, unassigned) [I-lb] the EC50 was 1 to 10 µM. In the case of `Nc1nc2c(ncn2[C@@H]2O[C@@H]3COP(=O)(S)O[C@H]4C[C@H](Oc5ccncn5)C[C@@H]4COP(=O)(S)O[C@@H]2C3)c(=O)[nH]1` (single isomer, unassigned) [I-lc], the EC50 is reported as > 25 µM.
